IC50 data for one compound are collected here from ChEMBL document CHEMBL1130600, “Tropane-based amino acids for peptide structure-function studies: inhibitors of platelet aggregation” (Bioorg Med Chem Lett, 1998).

The species entered for the assay is Homo sapiens. In words: Compound was tested for its ability to inhibit the thrombin-induced platelet aggregation in washed human platelets. The format is functional.

In general, IC50 refers to the concentration at which inhibition is half-maximal. `N=C(N)NCCC[C@H](N)C(=O)NCC(=O)N[C@@H](CC(=O)O)C(=O)N[C@@H](CO)C(=O)O` came in with an IC50 of 50 µM.
